Experimental data: patent US20170008959A1 (AbbVie / Abbott, published 2017)

Molecular target: T1, sRAGE-6×HIS (AA 23-352, NP_001127) (human, UniProt Q15109 23-331)
T1 construct: range 23-352; Printed as a fusion protein with limits 23-352 on NP_001127; also called human sRAGE-6×HIS; RAGE receptor; not shown: 6×HIS tag
Assay: AlphaScreen, biotinylated peptide and sRAGE-6×HIS
Experimental: The entire homogeneous assay was carried out in 25 mM HEPES, 100 mM NaCl of pH 7.4 and 0.1% BSA in a volume of 20 μl.
The individual components were brought together in a defined time sequence. […] The various amounts of peptide were then added in order, after a further 30 minutes, to add the donor beads. After a further 60 minutes, the fluorescence was measured in the AlphaQuest instrument from Perkin-Elmer with a time lag of one second. Each measured point was determined as triplicate. The analysis and graphical workup of the results took place with the GraphPrism 4.0 software package.

- EC50: 62 nM
B1: NtermR31 (peptide)
peptide: QNITARIGEPLVLKCKGAPKKPPQRLEWKLN
modifications: biotinylated (position not given) in the ELISA of embodiment 1 and in the AlphaScreen assay; unlabelled in dot blot, AP-Nogo66 competition and ACR assay
notes: also called Nterm 31; Nterm31
